Legend:
[1] = target: M1 receptor / M1-mEGFP (Mus musculus, UniProt P12657); test: cell-based; conditions: pEC50, production of inositol phosphates
[2] = target: M1-mEGFP receptor (Mus musculus, UniProt P12657); conditions: carbachol 1 × 10^−3 M, 30 min
[3] = target: M1 receptor and/or M1-mEGFP (Mus musculus, UniProt P12657); conditions: 1 mM carbachol, membranes from WT mice, Gαq/Gα11 immunoprecipitated
[4] = tested on: M1 receptor and/or M1-mEGFP; conditions: 1 mM carbachol, membranes from M1-KO mice

Chains of the proteins cited; added tags and fusions are not shown. Lines headed by an entry give the natural chain unless they say otherwise; changes in a name come on top.
UniProt P12657: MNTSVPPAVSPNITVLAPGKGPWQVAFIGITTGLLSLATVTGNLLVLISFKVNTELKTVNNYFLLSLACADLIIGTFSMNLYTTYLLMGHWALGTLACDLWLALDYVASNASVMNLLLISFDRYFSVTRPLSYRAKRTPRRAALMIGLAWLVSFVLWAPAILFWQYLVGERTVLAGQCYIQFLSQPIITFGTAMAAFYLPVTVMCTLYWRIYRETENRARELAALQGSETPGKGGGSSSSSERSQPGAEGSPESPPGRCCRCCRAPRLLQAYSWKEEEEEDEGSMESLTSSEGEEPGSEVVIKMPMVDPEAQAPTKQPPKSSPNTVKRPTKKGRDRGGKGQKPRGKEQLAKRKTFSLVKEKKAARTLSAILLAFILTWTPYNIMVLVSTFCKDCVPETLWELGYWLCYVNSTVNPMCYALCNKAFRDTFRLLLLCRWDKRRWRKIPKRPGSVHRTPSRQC

Which EC50 ([1]; neuronal cultures from WT mice) does the source give for C[N+](C)(C)CCOC(N)=O [carbachol] here?
Its EC50 is 24 µM.

And the EC50 ([1]; neuronal cultures from homozygous M1-mEGFP mice)?
The EC50 was 25.7 µM.

What about the “distribution of the receptor” value [2] of the same compound?
Its value is “increased the apparent punctate distribution of the receptor”.

And the “proportion of monomeric species” value ([2]; P < 0.0001 vs no ligand)?
Its value is “markedly increased”.

And the dimer fraction ([2]; P < 0.001)?
Its dimer fraction is “associated reduction”.

And the oligomer fraction ([2]; P < 0.001)?
Its oligomer fraction is “associated reduction”.

What about the “increase in bound [^35S]GTPγS” value [3] of the same compound?
The value was “approximately threefold”.

And the “promotion of [^35S]GTPγS binding” value [4]?
Its value is “unable to promote binding of [^35S]GTPγS”.

Reference: publication PMC9214538, “The M1 muscarinic receptor is present in situ as a ligand-regulated mixture of monomers and oligomeric complexes” (Proceedings of the National Academy of Sciences of the …, 2022)
